## Yeast mating assay 2: variants of the scFv Ab-95

Target: peptide PDVDLGDISGINAS, taken from heptad repeat 2 (HR2) of SARS-CoV-2 spike.

Parent: Ab-95, a human scFv built as VH, the linker GGGGSGGGGSGGGGS, VL. Only the CDRs of the light chain vary.
VH: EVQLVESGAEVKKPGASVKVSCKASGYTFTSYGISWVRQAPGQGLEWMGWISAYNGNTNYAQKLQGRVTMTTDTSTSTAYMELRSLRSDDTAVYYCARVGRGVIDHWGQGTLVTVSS
VL: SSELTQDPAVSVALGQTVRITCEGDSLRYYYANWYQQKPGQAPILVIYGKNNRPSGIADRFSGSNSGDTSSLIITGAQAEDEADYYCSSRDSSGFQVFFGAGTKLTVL

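Phage display of a naive human antibody library on the peptide gave the parent. The library (AAYL52) carries one to three amino acid substitutions per variant, with no insertions or deletions. The assay is AlphaSeq: two haploid yeast populations carry antibody and antigen on their surface. Mating (16 h, 30 °C) was followed by selection of diploids and sequencing of their barcodes. Each replicate has its own calibration line, from reference interactions of the BCL2 family. The assay was run in three technical replicates.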

Substitutions are numbered in sequence along the VL above, starting at 1 (not Kabat).
Every variant below is changed at D25 of the VL (sequential numbering).
Values are apparent Kd, the geometric mean of the replicates that gave a signal; lower means stronger binding.
A pair that was not seen in any replicate is written "nd"; this usually means weak binding, but a binder can also be missed.
Empty control strains, which show no peptide, gave a signal in 28% of pairings with library AAYL52; the median was 8.2 µM and 95% of these signals were weaker than 800 nM. No background was subtracted. Also given: how often the same scFv was detected with the empty control strains.
In this assay the parent's reference entry averaged 200 nM; its copy inside this library read 180 nM.

The variant D25N/N51W/S89I showed nd (0 of 3 replicates; controls 0 of 9). The variant D25A/A32T/K50V gave 580 nM (3 of 3 replicates; controls 3 of 9). The variant D25R/A32Q/N33Q showed 260 µM (1 of 3 replicates; controls 2 of 9). With D25K/Y30M/G49C the result was nd (0 of 3 replicates; controls 5 of 9). For D25A/N33W/R90G, the assay gave nd (0 of 3 replicates; controls 3 of 9). The variant D25P/Y30N/S92G gave 3.0 nM (3 of 3 replicates; controls 5 of 9).

For E23S/D25H/D91Q, the assay gave 410 nM (2 of 3 replicates; controls 3 of 9). For D25T/N33P/S55M, the assay gave nd (0 of 3 replicates; controls 0 of 9). The variant E23Y/D25T/D91F gave 220 nM (3 of 3 replicates; controls 2 of 9). For D25A/R28T, the assay gave 240 nM (3 of 3 replicates; controls 3 of 9). The variant D25I/L27T/Y29T showed 1.3 µM (3 of 3 replicates; controls 1 of 9). For D25W/D91T/G94H, the assay gave 9.7 µM (1 of 3 replicates; controls 3 of 9).

For D25K/R90G/F95K, the assay gave 2.2 µM (3 of 3 replicates; controls 2 of 9). The variant D25E/N33S/G49L gave 120 µM (1 of 3 replicates; controls 2 of 9). With D25H/G94F/Q96H the result was 550 nM (3 of 3 replicates; controls 5 of 9). The variant D25Y/S55L/V97Q showed 14 µM (1 of 3 replicates; controls 1 of 9). The variant D25P/A32D/F95S gave 5.7 µM (3 of 3 replicates; controls 4 of 9). For D25M/Y30L/S93P, the assay gave nd (0 of 3 replicates; controls 2 of 9).

The variant D25W/S55N/F98I showed 38 µM (3 of 3 replicates; controls 1 of 9). For D25F/P54T/Q96S, the assay gave 14 µM (3 of 3 replicates; controls 4 of 9). For G24C/D25F/V97R, the assay gave 660 µM (1 of 3 replicates; controls 3 of 9). The variant D25K/N33F/R90I gave nd (0 of 3 replicates; controls 1 of 9). The variant D25L/Y31C/N33M gave nd (0 of 3 replicates; controls 2 of 9). The variant D25W/A32P/S93T showed 100 nM (3 of 3 replicates; controls 4 of 9).

With D25Q/R53M/R90Q the result was nd (0 of 3 replicates; controls 2 of 9). The variant D25Y/S26I/Y29N showed 6.8 µM (3 of 3 replicates; controls 5 of 9). The variant E23N/D25T/S55D showed 31 nM (3 of 3 replicates; controls 2 of 9). For D25K/S26V/S88P, the assay gave nd (0 of 3 replicates; controls 3 of 9). The variant D25I showed 230 nM (3 of 3 replicates; controls 2 of 9). The variant D25R/L27N/R53S gave 4.7 µM (2 of 3 replicates; controls 4 of 9).

For D25Y/S89T/D91V, the assay gave 600 nM (3 of 3 replicates; controls 3 of 9). The variant D25N/S26V/Y30I gave 2.0 µM (2 of 3 replicates; controls 1 of 9). With D25Y/N52T/R53F the result was 12 µM (1 of 3 replicates; controls 0 of 9). The variant D25S/S26H gave 79 nM (3 of 3 replicates; controls 4 of 9). With D25K/S26N/R53N the result was 38 µM (1 of 3 replicates; controls 2 of 9). For D25A/S89L/F95T, the assay gave 890 nM (3 of 3 replicates; controls 5 of 9).

The variant D25C/S26K/P54W showed 44 µM (2 of 3 replicates; controls 3 of 9). The variant E23Q/D25S/S88I showed 3.6 µM (1 of 3 replicates; controls 3 of 9). The variant D25R/A32V/N33R gave 1.5 µM (3 of 3 replicates; controls 2 of 9). With D25R/Y31V/G94N the result was 20 µM (1 of 3 replicates; controls 3 of 9). For D25V/S26F/A32E, the assay gave nd (0 of 3 replicates; controls 2 of 9). For D25C/S26K/G49L, the assay gave 27 µM (2 of 3 replicates; controls 2 of 9).

The variant D25Q/R28K/V97S gave 11 µM (2 of 3 replicates; controls 2 of 9). The variant D25V/N51E/Q96K showed 740 nM (1 of 3 replicates; controls 4 of 9).

The first 5 entries again:

| changes | Kd (apparent) | detected | signal with controls |
|---|---|---|---|
| D25N/N51W/S89I | nd | 0/3 | 0/9 |
| D25A/A32T/K50V | 580 nM | 3/3 | 3/9 |
| D25R/A32Q/N33Q | 260 µM | 1/3 | 2/9 |
| D25K/Y30M/G49C | nd | 0/3 | 5/9 |
| D25A/N33W/R90G | nd | 0/3 | 3/9 |

Data: MIT Lincoln Laboratory AlphaSeq set, Engelhart et al. 2022, doi:10.1038/s41597-022-01779-4, as distributed in FLAb.